The numbers were not newly measured in patent US8802053B2 (Brookhaven Science Associates, LLC, priority 2009, dated 2014), which cites them from elsewhere.

Amino acid sequences for entries named in this document (tags omitted).
UniProt P11511, whole entry, species assumed: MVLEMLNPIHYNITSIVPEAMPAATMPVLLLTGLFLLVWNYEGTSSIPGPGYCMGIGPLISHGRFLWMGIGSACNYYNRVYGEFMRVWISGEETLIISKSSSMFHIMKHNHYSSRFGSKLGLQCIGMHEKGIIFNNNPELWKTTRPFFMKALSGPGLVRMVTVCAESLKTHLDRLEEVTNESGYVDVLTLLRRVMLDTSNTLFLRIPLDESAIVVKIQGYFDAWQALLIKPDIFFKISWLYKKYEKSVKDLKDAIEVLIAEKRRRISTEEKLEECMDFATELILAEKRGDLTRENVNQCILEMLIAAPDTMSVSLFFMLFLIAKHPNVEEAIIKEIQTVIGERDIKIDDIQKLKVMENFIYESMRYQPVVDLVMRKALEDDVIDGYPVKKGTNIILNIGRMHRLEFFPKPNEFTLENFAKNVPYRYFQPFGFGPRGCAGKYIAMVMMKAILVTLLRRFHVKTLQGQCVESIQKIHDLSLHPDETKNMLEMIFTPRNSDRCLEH

The target in this series is aromatase (Homo sapiens, UniProt P11511). The settings on record: Wouters et al. (1990); cited from earlier work.

Take `Cn1nnc2ccc([C@@H](c3ccc(Cl)cc3)n3cncn3)cc21` [(R)-vorozole]: the activity of enantiomer result is “inactive”.
